## Antibody variant affinities, Ab-14 light chain, assay 1

Reference: Engelhart et al. 2022, doi:10.1038/s41597-022-01779-4. File: FLAb, binding data.

All variants were tested on one target, the spike HR2 peptide PDVDLGDISGINAS (SARS-CoV-2).

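The starting antibody came from a phage panning campaign against this peptide. In library AAYL50, one, two or three CDR residues were substituted; doubles and triples were drawn at random. In AlphaSeq, yeast of one mating type display the scFv and yeast of the other type display the target. Mating (16 h, 30 °C) was followed by selection of diploids and sequencing of their barcodes. Scores were corrected for input abundance and mapped to Kd with protein pairs of known affinity run in the same pool. Each pool was mated in three replicate cultures.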

Parent scFv Ab-14: VH joined to VL by a 15-residue (Gly4Ser)3 linker. Changes lie in the light chain CDRs alone.
VH: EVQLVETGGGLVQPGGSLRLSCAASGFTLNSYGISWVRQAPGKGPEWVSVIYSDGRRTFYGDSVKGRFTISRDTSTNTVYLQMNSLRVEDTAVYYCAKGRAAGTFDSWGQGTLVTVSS
VL: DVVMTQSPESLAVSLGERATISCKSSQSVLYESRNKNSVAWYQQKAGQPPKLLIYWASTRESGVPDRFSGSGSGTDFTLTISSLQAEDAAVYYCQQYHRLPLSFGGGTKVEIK

Each variant is given by its three light chain CDRs, as the data file delimits them; those of the parent are KSSQSVLYESRNKNSVA, WASTRES, QQYHRLPLS. The read-out is the apparent dissociation constant on a log10 scale (nM): the lower, the stronger. A mean of the replicates is given; it leaves out those without a signal. "nd" means that the variant was in the library but no mating with the target was seen in any replicate; the authors take this as a sign of poor binding, and no number exists. Order: sorted from the lowest average up, undetected variants last.

| CDR-L1 | CDR-L2 | CDR-L3 | log10 Kd (nM), mean | seen in |
|---|---|---|---|---|
| KSSQSVLYESRNKNSVA | WASTRNS | NIYHRLPLS | 0.75 | 3 of 3 |
| KSEFSVLYESRNKNSVA | WASTRES | DQYHRLPLS | 0.76 | 3 of 3 |
| KSSQSVLYSSRNKNSVA | WASTRAS | QQYHRLDLS | 0.90 | 3 of 3 |
| KQSQSVLYESRNKNQVA | WASTRES | QQYHRLPLS | 1.45 | 3 of 3 |
| KSLQSVLFESRNKNSVA | WASTRES | QQYHRLPLS | 1.52 | 3 of 3 |
| KSSQMVKYESYNKNSVA | WASTRES | QQYHRLPLS | 1.69 | 3 of 3 |
| KSSQSVLYESRNKNSVG | WASHRES | QQYHRMPLS | 1.99 | 3 of 3 |
| KSSQSVLYESRNKNSVA | WAQTRES | QQYHRLPLG | 2.00 | 3 of 3 |
| KSSQSVLYESRWKASVA | HASTRES | QQYHRLPLS | 2.03 | 3 of 3 |
| KSSQSPLYESRNKNSVA | WASTRES | QQYHRNPLS | 2.10 | 3 of 3 |
| KSSQSVLYESRNKNSVA | WASTRES | GQDHRLPLD | 2.13 | 3 of 3 |
| KSSNSVLYESREKNSVA | WASTRES | WQYHRLPLS | 2.21 | 3 of 3 |
| KSSQSVLYESRMKNSVA | WASTRES | QKYHRKPLS | 2.26 | 3 of 3 |
| KSSDSVLYESRNKNFVA | WASTRES | QQYHRLSLS | 2.45 | 2 of 3 |
| NSSQDVLYESRNKNSVA | WASTRES | QMYHRLPLS | 2.69 | 3 of 3 |
| KSSQSVLYESRNENSVA | WASTREQ | QQYHRLCLS | 2.76 | 3 of 3 |
| KSEQSVLYESTNKNSVS | WASTRES | QQYHRLPLS | 2.90 | 3 of 3 |
| KSSHSVLYESRNKVSVA | WASTREV | QQYHRLPLS | 2.94 | 3 of 3 |
| KSSQSVLYMSRNKNSVA | WASTRES | QQPHRLPLS | 2.96 | 3 of 3 |
| KSSQSVLYESRNKNSVQ | WASTRES | QRYHRLPLS | 3.24 | 1 of 3 |
| KSSQSVLYCSRQKNSVA | WASTRES | QQYHRLPLS | 3.25 | 1 of 3 |
| KSSQSVLYESRNGTSVA | WASTRES | QQYHTLPLS | 3.32 | 3 of 3 |
| KSSQSVLYESRNCMSVA | WASTRES | QQYHRLPGS | 3.89 | 2 of 3 |
| KSSQSVLYKSRNKNSVA | RASVRES | QQYHRLPLS | 4.09 | 1 of 3 |
| KSSQSVLYESINKESVA | WAVTRES | QQYHRLPLS | 4.15 | 2 of 3 |
| KSSQSVHYESRNKNSVA | WASTRES | QQYRRLPLI | 4.23 | 1 of 3 |
| KSSQSVLYESRRKDSVA | WAFTRES | QQYHRLPLS | 4.23 | 2 of 3 |
| KSSQSVLYESRNKNSVA | WASTRCS | QQKHRLWLS | 4.57 | 2 of 3 |
| KSSQSVLYESYNKNSVA | WASTRES | QQGRRLPLS | 4.72 | 1 of 3 |
| KSSQSVLYEQRNKNSVA | WWSTRES | QQYHRLPLC | 4.80 | 1 of 3 |
| KSSQSVLYESRNKRSVA | IASTRES | QQYHALPLS | 4.83 | 1 of 3 |
| KSSQSVLYRSRNKNSVH | WASTQES | QQYHRLPLS | 4.84 | 1 of 3 |
| KSSQSVLYESRNKMSVH | WASYRES | QQYHRLPLS | nd | 0 of 3 |
| KSSQSVLYLSRNKNSVA | WYSYRES | QQYHRLPLS | nd | 0 of 3 |
| KSSQSVLVESRNKNLVA | WASTRES | RQYHRLPLS | nd | 0 of 3 |
| KSSQSVLYESRNKNSVA | PYKTRES | QQYHRLPLS | nd | 0 of 3 |
| KSSQSVLYESMNKNSVA | PASTRES | QQYHRLPPS | nd | 0 of 3 |
| KSKQSVLYESRNKVSVE | WASTRES | QQYHRLPLS | nd | 0 of 3 |
| KSSQSVLYETRNPNKVA | WASTRES | QQYHRLPLS | nd | 0 of 3 |
| KSSQSVLYESRNKNSVA | WESTRES | QHYLRLPLS | nd | 0 of 3 |
| KSSQSVLGESRNKNSVA | WASRRES | QQTHRLPLS | nd | 0 of 3 |
| KSSQMVLYESRNKNSVA | WASTRWS | QQYHRLPLS | nd | 0 of 3 |
| KSSQSVLYESRNKISVK | TASTRES | QQYHRLPLS | nd | 0 of 3 |
| KSSQSVLYISWNKNAVA | WASTRES | QQYHRLPLS | nd | 0 of 3 |
| FSSRSVLRESRNKNSVA | WASTRES | QQYHRLPLS | nd | 0 of 3 |
| KSSQSVLYESRNMNSVA | WASTRES | QQLLRLPLS | nd | 0 of 3 |
| KSLQSVLYLSNNKNSVA | WASTRES | QQYHRLPLS | nd | 0 of 3 |
| KSSQSVLLESRNKNWVA | WASTWES | QQYHRLPLS | nd | 0 of 3 |
| KSSQSVLYESRNKNSVA | WASTRAS | QQYHRKPLS | nd | 0 of 3 |
| KSSQSVLYESRNKNSHA | WASTRES | QQPHRKPLS | nd | 0 of 3 |
| KSSQSVLYESRNKNKVA | WARTRES | QQYHRLPLS | nd | 0 of 3 |
| KSAQSVLYESRNKNSVA | WASARES | QQYLRLPLS | nd | 0 of 3 |
| KSSQSVLYESRNKVSVA | WAFTRES | DQYHRLPLS | nd | 0 of 3 |

Background: pairings of library AAYL50 with three empty control strains gave a value in 18% of cases (median 4.19, 5th percentile 2.99). Values in that range, when seen in few replicates, are hard to tell from nonspecific mating.